Ab-14 heavy chain CDR variants: yeast mating affinities

From the AlphaSeq antibody data of Li et al. 2023 (doi:10.1038/s41467-023-39022-2), copy in the FLAb collection.

Antigen: PDVDLGDISGINAS, a 14-residue peptide of the SARS-CoV-2 spike HR2 region.

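The parent was found by panning a naive human phage display library on the peptide. These sequences belong to a second round, designed from the earlier measurements on random variants of the parent. Their group label is 14H_En_Gibbs (En: ensemble of fine-tuned language models; Gibbs: Gibbs sampling). In AlphaSeq, yeast of one mating type display the scFv and yeast of the other type display the target. Mating (16 h, 30 °C) was followed by selection of diploids and sequencing of their barcodes. Each replicate has its own calibration line, from reference interactions of the BCL2 family. Each pool was mated in six replicate cultures.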

Each scFv is VH, three GGGGS repeats, VL, as in the parent Ab-14, and differs from it in the CDRs of the heavy chain only.
VH: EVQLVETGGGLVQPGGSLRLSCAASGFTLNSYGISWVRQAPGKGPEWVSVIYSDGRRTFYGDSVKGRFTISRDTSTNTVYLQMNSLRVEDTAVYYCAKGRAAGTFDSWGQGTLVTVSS
VL: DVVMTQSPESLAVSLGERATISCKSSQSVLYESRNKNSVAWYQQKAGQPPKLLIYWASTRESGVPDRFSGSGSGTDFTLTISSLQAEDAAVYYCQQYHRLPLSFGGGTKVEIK

The parent's heavy chain CDRs are GFTLNSYGIS, VIYSDGRRTFYGDSVK, GRAAGTFDS; each variant's own CDRs replace them letter for letter.
Scale: log10 of Kd in nM, estimated from mating counts; low values are strong binders.
An entry "n.d." has no value in the source: the pair was not observed among the diploids in that replicate. This suggests poor binding but is not conclusive.
The authors' rule: three or more of the six replicates give a measured affinity, fewer mean a poor binder.
A sequence measured in both rounds can read differently, since the two assays cover different ranges.
Empty control strains, which show no peptide, gave a signal in 1% of pairings with all heavy chain designs; the median was 2.08 and 95% of these signals were weaker than 0.84. No background was subtracted. For each scFv, signals with the empty controls are counted beside the result, with their mean in brackets.
Of ten entries with the parent sequence, four were seen in most replicates (averages 0.34 to 2.37), three in one and three in none, so single entries are noisy.

CDR-H1,CDR-H2,CDR-H3,log10 Kd (nM) by replicate,signal with controls
GFQLDEYGIS,VIYADGKRTAYSKNVK,GYIDFKLIG,3.00 n.d. n.d. n.d. n.d. n.d.,0 of 18
GDFLDEYGIS,VIYADGMRSSYANKVK,GHNFGLKMV,n.d. n.d. n.d. n.d. n.d. n.d.,0 of 18
GFDLGEYGIS,VIYADGVRQSYADKVK,GANGVFSLV,n.d. n.d. n.d. n.d. n.d. n.d.,0 of 18
GEDLQEYGIS,VIYADGQRIYYSDDVK,GQVAGHFLV,n.d. n.d. n.d. n.d. n.d. n.d.,0 of 18
GFNLDEFGIS,VIYADGRRRAYSDEVK,GQHGWFLLQ,n.d. n.d. n.d. n.d. n.d. n.d.,2 of 18 (0.76)
EMDLQEFGIS,VIYADGKREAYKDDFK,GQIAGTFDL,n.d. n.d. n.d. n.d. n.d. n.d.,0 of 18
GFGLDEYGIS,VIYADGERRSYVDNVK,GFDGEKGIV,n.d. n.d. n.d. n.d. n.d. n.d.,0 of 18
GFKLEEYGIS,VIYADGKRVAYQDAVK,GKHAGMFLV,n.d. n.d. n.d. n.d. n.d. n.d.,2 of 18 (2.33)
AFNIEDYGIS,VIYADGVRAMYVESVK,GGIAGTFEI,1.75 1.10 n.d. 1.84 2.05 1.01,0 of 18
GDNINEYGIS,VIYADGLRKQYSENVK,GYLAGTLDE,n.d. n.d. n.d. n.d. 2.93 n.d.,1 of 18 (1.02)
GFNLEEYGIS,VIYADGKRTQYSENVK,GHKGNVRTV,n.d. n.d. n.d. n.d. n.d. n.d.,0 of 18
GYDIEQYGIS,VIYADGIRTVYDDKVK,GHNGDTFYV,n.d. n.d. n.d. n.d. n.d. n.d.,0 of 18
GMSLLEYGIS,VIYADGRRTAYTDSFK,GGSVKDTFV,-0.07 0.20 -0.01 1.19 -0.21 0.58,0 of 18
FQLLDDYGIS,VIYADGKRVAYVDDVK,GNVAGTFDM,0.56 0.48 0.10 0.06 0.42 0.62,0 of 18
GEDLLEYGIS,VIYADGIRVMYQNQVK,GNVAGFFTL,n.d. n.d. n.d. n.d. n.d. n.d.,0 of 18
GFDLEEYGIS,VIYADGMRQMYAQNVK,GYNSSDMTV,n.d. n.d. 2.24 n.d. n.d. n.d.,0 of 18
GQSLDEYGIS,VIYADGSRTAYAKSVK,GLGGFLNIM,n.d. n.d. n.d. n.d. n.d. n.d.,0 of 18
GADIQEYGIS,VIYADGIRTAYAQNVK,GEYDSQFDI,n.d. n.d. n.d. n.d. n.d. n.d.,0 of 18
GFDINEYGVS,VIYADGMRAAYTDSVK,GKGAWIALV,n.d. n.d. n.d. n.d. n.d. n.d.,0 of 18
GFGINEYGIS,VIYADGMRRSYADSVK,GAHSGYMVV,n.d. n.d. n.d. n.d. n.d. n.d.,0 of 18
GFDINEYGIS,VMYADGSRSVYQDKVK,GFQSGTLDM,n.d. n.d. n.d. n.d. n.d. 1.86,0 of 18
GFSFDEYGIS,VIYADGKRSFYADTVK,GNKDMAFDI,n.d. n.d. n.d. n.d. n.d. n.d.,0 of 18
GYDMEDYGIS,VIYADGSRAAYVDNFK,GELAGTFDM,n.d. n.d. 1.84 n.d. n.d. n.d.,1 of 18 (1.10)
GFDVMEYGIS,VIYADGMRQAYANKVK,GGITSSGLI,n.d. n.d. n.d. n.d. n.d. n.d.,0 of 18
GFGIEEYGIS,VIYADGVRKAYQNSFK,GEVGGTFVN,-0.64 0.21 -0.68 -0.23 -0.18 -0.14,0 of 18
GFNLEEFGIS,VIYADGKRSSVSDSVK,GQLGNAFDL,n.d. n.d. n.d. 2.91 n.d. n.d.,0 of 18
GFDVLEYGIS,VIYADGRRAAYAKDVK,GMNGDFIVD,n.d. n.d. n.d. n.d. n.d. n.d.,0 of 18
GKSLDEYGIS,VIYADGMRAEYQNSVK,GTTGGDVFV,n.d. n.d. n.d. n.d. n.d. n.d.,0 of 18
DFNLNEYGIS,VIYADGQRASYDDKVK,GQIGGTFND,n.d. n.d. n.d. n.d. n.d. n.d.,2 of 18 (2.63)
GNNLDEYGIS,VIYADGQRTYYAEDVK,GKTGDTAFI,n.d. n.d. n.d. n.d. n.d. n.d.,0 of 18
GMNLDEYGIS,VIYADGLRYHYANKVK,GEMAGFFMD,n.d. n.d. n.d. n.d. n.d. 2.48,0 of 18
GFDIQDLGIS,VIYADGLRTAYSDGFK,GIIAGTFNI,0.25 -0.40 0.43 -0.41 -0.21 0.24,2 of 18 (2.38)
GFDLNEYGIS,VIYADGMRTKYSESVK,GTGDGSFQL,1.15 0.84 0.23 0.78 1.38 0.85,0 of 18
GFDLDEYGIS,VIYADGKRTSYQADVK,GSQVGNALV,n.d. n.d. 1.44 n.d. n.d. n.d.,0 of 18
GNDLEEYGIS,VIYADGIRTNYHQNVK,GTNGDTFTQ,n.d. n.d. n.d. n.d. n.d. n.d.,0 of 18